In experiment [1] the test system is NIH/3T3 untransfected control cells. As to the kind of experiment: Adenylate Cyclase Stimulation assay (cAMP), untransfected control cells. The class given is cell-based. To be noted: untransfected NIH/3T3 control cells. As to the method:
The cells were washed with 1 ml of a nutrient deficient DMEM solution (Gibco-BRL, Gaithersburg, Md.) to remove excess radioisotope and incubated for 10 minutes (37° Celsius). The wash solution was removed and 500 μL of a DMEM solution containing 1 mg/ml BSA and 2.5 mM 3-isobutyl, 1-methylxanthine (IBMX) was added to each well. Peptide was added in 5 μL aliquots to 21 of the 24 wells with three receiving no peptide to serve as a baseline for stimulation. The remaining 21 wells were incubated at 37° Celsius with increasing concentrations of the indicated peptide and the response was measured. Following a one hour incubation, each well received 100 μL of a 2% SDS, 1 mM cAMP solution to lyse the cells. cAMP was assayed by consecutive Dowex AG-50W-X4 resin (BioRad, Richmond, Calif.) and aluminum oxide (Sigma, St. Louis, Mo.) column chromatography. Finally, 4 mL of a 10% imidazole solution eluted the contents into scintillation vials where (^3H) cAMP was measured using a Beckman Liquid Scintillation Counter (Fullerton, Calif.).

For experiment [2] the test system is unchanged. As to the kind of experiment: Radioligand Binding Inhibition assay (125I-CGRP), untransfected control cells. To be noted: untransfected NIH/3T3 control cells.

SMILES strings stand for the structures.

Take `CC(C)C[C@H](NC(=O)CNC(=O)[C@H](C)NC(=O)[C@H](CC(C)C)NC(=O)[C@H](CCCNC(=N)N)NC(=O)[C@H](Cc1c[nH]cn1)NC(=O)[C@@H](NC(=O)[C@@H](NC(=O)[C@@H]1CSSC[C@H](NC(=O)[C@H](C)N)C(=O)N[C@@H](CC(=O)O)C(=O)N[C@@H]([C@@H](C)O)C(=O)N[C@@H](C)C(=O)N[C@@H]([C@@H](C)O)C(=O)N1)C(C)C)[C@@H](C)O)C(=O)N[C@@H](CC(C)C)C(=O)N[C@@H](CO)C(=O)N[C@@H](CCCNC(=N)N)C(=O)N[C@@H](CO)C(=O)NCC(=O)NCC(=O)N[C@H](C(=O)N[C@H](C(=O)N[C@@H](CCCCN)C(=O)N[C@@H](CC(N)=O)C(=O)N[C@@H](CC(N)=O)C(=O)N[C@@H](Cc1ccccc1)C(=O)N[C@H](C(=O)N1CCC[C@H]1C(=O)N[C@H](C(=O)N[C@@H](CC(N)=O)C(=O)N[C@H](C(=O)NCC(=O)N[C@@H](CO)C(=O)N[C@@H](CCCCN)C(=O)N[C@@H](C)C(=O)N[C@@H](Cc1ccccc1)C(N)=O)C(C)C)[C@@H](C)O)C(C)C)C(C)C)C(C)C` [CGRP]: the cAMP stimulation result in experiment [1] is on record as “lack of cAMP stimulation”. Further, the “inhibition of 125I-CGRP binding” value in experiment [2] is given as “lack of binding inhibition”.

Source of the values: patent US20040110170A1, “Cloning and characterization of calcitonin gene related peptide receptors” (priority 2002, published 2004).
